Experimental findings from ChEMBL document CHEMBL3400148, “Structure-based discovery of small molecule hepsin and HGFA protease inhibitors: Evaluation of potency and selectivity derived from distinct binding pockets” (Bioorg Med Chem, 2015) are described below.

Structures are written as SMILES.

The target of this assay is T1, Suppressor of tumorigenicity 14 protein (Homo sapiens, UniProt Q9Y5Y6).
T1 sequence (Q9Y5Y6 whole entry): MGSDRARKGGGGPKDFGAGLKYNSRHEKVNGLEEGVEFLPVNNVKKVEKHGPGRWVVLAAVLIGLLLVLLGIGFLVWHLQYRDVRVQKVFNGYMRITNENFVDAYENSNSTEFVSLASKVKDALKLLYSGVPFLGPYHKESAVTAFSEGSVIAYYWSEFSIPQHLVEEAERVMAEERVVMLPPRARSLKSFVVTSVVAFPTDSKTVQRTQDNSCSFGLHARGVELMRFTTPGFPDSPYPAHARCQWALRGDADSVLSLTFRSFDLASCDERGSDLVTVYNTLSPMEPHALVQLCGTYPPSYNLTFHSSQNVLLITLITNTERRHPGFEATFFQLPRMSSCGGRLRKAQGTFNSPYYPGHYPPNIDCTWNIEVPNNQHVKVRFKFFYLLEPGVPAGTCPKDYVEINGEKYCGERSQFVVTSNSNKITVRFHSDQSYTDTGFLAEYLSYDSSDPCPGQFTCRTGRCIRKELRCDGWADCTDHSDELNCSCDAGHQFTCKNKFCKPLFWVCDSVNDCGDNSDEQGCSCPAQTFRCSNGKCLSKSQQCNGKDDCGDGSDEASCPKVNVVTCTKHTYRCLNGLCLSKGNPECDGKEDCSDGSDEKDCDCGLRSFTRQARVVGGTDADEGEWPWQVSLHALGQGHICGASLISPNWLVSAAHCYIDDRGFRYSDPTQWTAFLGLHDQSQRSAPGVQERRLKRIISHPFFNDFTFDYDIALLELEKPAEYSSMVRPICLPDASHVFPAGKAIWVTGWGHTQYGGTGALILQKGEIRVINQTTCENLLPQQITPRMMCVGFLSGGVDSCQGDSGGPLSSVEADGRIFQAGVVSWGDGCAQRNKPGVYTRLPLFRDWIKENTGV
Nature of the assay: Inhibition of matripase (unknown origin) using Boc-QAR-AMC as substrate incubated for 30 mins prior to substrate addition by fluorescence assay.

For orientation: Ki means a dissociation constant, usually derived from enzyme kinetics or from competition with a known ligand. A lower Ki goes with higher affinity. Turning to `Cc1ccc(S(=O)(=O)N[C@@H](Cc2cccc(C(=N)N)c2)C(=O)N2CCN(C(=O)OCc3ccccc3)CC2)cc1`, the Ki came out at 620 nM.
